These results are taken from US8673890B2, “2,3-dihydro-1H-isoindol-1-imine derivatives useful as thrombin PAR-1 receptor antagonist” (Janssen Pharmaceutica NV, priority 2009, dated 2014).

Chains of the proteins cited; added tags and fusions are not shown. Residues count along the entry.
UniProt P25116, 22-425 limits assumed: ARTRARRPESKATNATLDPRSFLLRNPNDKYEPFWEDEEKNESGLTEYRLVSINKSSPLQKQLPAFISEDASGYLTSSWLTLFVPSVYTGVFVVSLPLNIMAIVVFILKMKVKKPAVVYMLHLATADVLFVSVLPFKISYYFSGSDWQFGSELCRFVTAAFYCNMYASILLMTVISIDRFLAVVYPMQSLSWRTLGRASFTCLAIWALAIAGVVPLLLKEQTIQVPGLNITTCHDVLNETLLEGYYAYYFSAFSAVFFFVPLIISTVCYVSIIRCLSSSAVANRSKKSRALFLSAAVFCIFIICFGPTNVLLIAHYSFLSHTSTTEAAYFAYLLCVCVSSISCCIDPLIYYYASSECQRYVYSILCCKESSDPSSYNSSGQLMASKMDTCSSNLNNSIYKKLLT

“And” between values parts separate entries of the source, which are not always exact repeats. Identical values can stand only once. Where only a bound is given, the exact number is not on record here.

In assay [1] the target is thrombin receptor (PAR-1) (Homo sapiens, UniProt P25116). The experiment in a line: FLIPR-based calcium-flux assay with human smooth muscle cells (Har peptide agonist). Conditions: read-out: FLIPR-HSMC IC50 (μM) 80-min drug incubation, 30 nM Har (PAR1) peptide agonist, multiple values = individual measurements. The procedure:
Human aortic smooth muscle cells (HSMC) were purchased from Cascade Biologics (Portland, Oreg.) and cultured in M-231 containing smooth muscle cell growth supplement and 1× Antibiotic-Antimycotic.
To determine agonist concentration for compound testing: On the day prior to the assay, 100 μL of cells (2×10^5/mL) were seeded in clear, flat-bottom black-wall, tissue culture treated polystyrene 96-well plates and incubated at 37° C., 5% CO2. On the day of the assay, 50 μL of complete dye loading solution (FLIPR Calcium 3 Kit, Molecular Devices) was added to each well containing 100 μL of culture media. The cells were incubated for 30-45 min at 37° C., in 5% CO2 before initiating the assay on the FLIPR. The agonist effect of PAR1 peptide (S-(p-F-Phe)-Har-L-Har-KY-NH2; Har=homoarginine; referred to herein as “Har” peptide) was tested and the EC50 was determined. The EC60-70 dose was used (30 nM) for compound testing.
Compound testing: On the day prior to the assay, 90 μL of cells (2.2×10^5/mL) were seeded in clear, flat-bottom black-wall, tissue culture treated polystyrene 96-well plates and incubated at 37° C., 5% CO2. On the day of the assay, the test compounds were prepared at 10× in 3% DMSO Hanks buffer and 10 μL was added to each well (final DMSO concentration of 0.3%). The cells were incubated 20 min at 37° C., 5% CO2. Culture medium containing testing compounds was dumped and the cells were washed four times with DPBS containing 0.1% of BSA and re-fed with 80 μL of growth medium. 70 μL of BD (fluorescent) dye was loaded to the cells and incubated 45 min at 37° C. incubator. The plates were equilibrated to room temperature for 15 min. 4× PAR1 peptide (30 nM final concentration) agonist plate and the cell plate were placed in FLIPR's assay chamber. 50 μL agonist was added to the cells and data was recorded for 5 min. Raw fluorescence data was exported for each well and tabulated versus time within an ASCII file. Data was then imported into Excel® and the peak response over basal level was determined. The percent inhibition for each test compound was calculated by the changes of fluorescent density as a % inhibition of the control Har peptide response to obtain an IC50.
Representative compounds of the present invention were tested according to the procedure described in Biological Example 1 above, with results in Table 8 below. In Table 8 below, where multiple values are listed for a particular compound, said numbers represent individual measurements (tests) for said compound.

Assay [2] has as its system platelets in platelet-rich plasma. The assay is described as follows: Har peptide-induced platelet aggregation in platelet-rich plasma. The procedure:
(§1) The procedure for this assay is similar to that described in Biological Example 2, above. Briefly, platelet aggregation studies were performed according to the method of Bednar et al. (Bednar, B., Condra, C., Gould, R. J., and Connolly, T. M., Thromb. Res., 77:453-463 (1995)). Platelet-rich plasma (PRP) concentrates prepared from healthy volunteers who were aspirin free for at least 7 days by venipuncture using EDTA as anticoagulant was purchased from Biological Specialties, Inc. (Colmar, Pa.). PPP (platelet-poor-plasma) was obtained by centrifugation of PRP at Max (3,000 rpms) for 15 min at room temperature. PRP was diluted to yield platelet count of 300×10^3 platelets/μL with PPP. For thrombin induced platelet aggregation: 118 μL of 500 mM GPRP-NH2 was added to 12 mL of 300×10^3 platelets before using (to clean the fibrinogen in the plasma.) GPRP was added just before the experiment. 15 μL of test compound solutions were added to 120 μL of platelets 5 min prior the agonist additions. Platelet aggregation was initiated by the addition of agonist shown to achieve 60-70% aggregation. Antagonist potency was estimated as a % inhibition of the control Har peptide or thrombin response to obtain an IC50.
(§2) Where multiple values are listed for a particular compound, said numbers represent individual measurements (tests) for said compound.

Assay [3] shares this test system. The experiment in a line: Thrombin-induced platelet aggregation in platelet-rich plasma. The note with it: read-out: Platelet Rich Plasma Aggregation Thrombin IC50, multiple values = individual measurements. As to the method: as §1, §2

A word on the IC50: it is the midpoint of a concentration-inhibition curve. Turning to `COc1c(N2CCOCC2)cc(C(=O)CN2Cc3cc4c(cc3C2=N)OCCN(S(=O)(=O)c2ccc(C)cc2)CCO4)cc1C(C)(C)C`, the IC50 in assay [1] was 0.13 µM and 1.3 µM and 0.61 µM. In the case of `COc1c(N2CCOCC2)cc(C(=O)CN2Cc3cc4c(cc3C2=N)OCCN(c2ccccc2)CCO4)cc1C(C)(C)C`, the “Platelet Rich Plasma Aggregation Har, % inhibition @10 μM” value in assay [2] (10 μM compound, 10 µM) is 33%@10 μM and 38%@10 μM. Moreover, the IC50 in assay [3] is 7.5 µM; in assay [1], 0.58 µM and 0.54 µM. Take `CC(C)(C)c1cc(C(=O)CN2Cc3cc4c(cc3C2=N)OCCNCCO4)cc(C(C)(C)C)c1O`: the IC50 in assay [1] was greater than 1 µM. On the same count and under the same terms, as for `COC(=O)c1ccc2c(c1)COc1cc3c(cc1OC2)CN(CC(=O)c1cc(Br)c(OC)c(C(C)(C)C)c1)C3=N`, the figure is 0.189 µM. For the molecule `COc1c(N2CCOCC2)cc(C(=O)CN2Cc3cc4c(cc3C2=N)OCCN(C(C)=O)CCO4)cc1C(C)(C)C`, the IC50 is greater than 10 µM in assay [2] (read-out: Platelet Rich Plasma Aggregation Har IC50, multiple values = individual measurements); greater than 10 µM in assay [3]; greater than 3 µM in assay [1]. With `CC(C)(C)OC(=O)N1CCOc2cc3c(cc2OCC1)C(=N)N(CC(=O)c1cc(C(C)(C)C)c(O)c(C(C)(C)C)c1)C3`, the IC50 in assay [1] amounted to 0.109 µM. The same measure, in the same setting: as for `COc1c(N2CCOCC2)cc(C(=O)CN2Cc3cc4c(cc3C2=N)OCc2cccnc2CO4)cc1C(C)(C)C`, the figure is 0.057 µM and 0.2 µM and 0.22 µM.
